Reference: US20230365492A1, “LITHIUM ORGANIC ACID-AMINO ACID SALT, AND CRYSTAL FORM, COMPOSITION AND APPLICATION THEREOF” (ANYU BIOTECHNOLOGY (HANGZHOU) CO., LTD., priority 2020, published 2023)

Assays:
HEK293 cells = conditions: 5 mM, 4 hours, confocal microscope
[1] = male SD rats, gavage 0.08 mmol lithium/rat, 0-24 hours, compared with lithium carbonate
Kunming mice [2] = tested on: Kunming mice
Kunming mice [3] = assay: Oral acute toxicity (limited test method / Horn's method); conditions: mouse, in vivo

In the case of lithium isobutyrate-L-proline salt, the “change in morphology of HEK293 cells” value (HEK293 cells) is reported as “no obvious change in morphology”, the “level of lithium in the brain” value ([1]; brain tissues) is reported as “no obvious difference in the level of lithium in the brain” and the blood lithium level ([1]; plasma) is reported as “higher blood lithium level”. For the same substance, the gross anatomy findings (Kunming mice [2]; oral acute toxicity, after 14 days or death) was “no abnormalities are found after the gross anatomy”, the LD50 value (Kunming mice [2]; oral, single administration, 14 days observation) was “greater than 5,000 mg/kg” and the “death of experimental animals” value (Kunming mice [3]) was “not dead within 14 days”.
